Data set [1] in a line: Cytotoxicity (CC50) by MTT method in Vero cells. The class given is cell-based. The following applies: African green monkey, compounds. The method, then: (§1) Compounds and selected extracts that tested positive for anti-ZIKV or anti-DENV-2 activity at the screening step had their CC50 determined by using an 8‐point dose range in 96 well microplate containing Vero or BHK-21 cell monolayers. Cell viability was observed by optic microscopy and measured by the MTT method as described. The experiments were performed in duplicate and repeated at least three times.
(§2) Bioassay data were normalized to untreated uninfected cells and the EC50 and CC50 values were obtained using GraphPad Prism 5 based on nonlinear logistic regression of the experimental dose–response curves. The values correspond to three independent assays' average and standard deviation with at least 8 sample distinct concentrations. The CC50 and EC50 values ratio was used as a selectivity index (SI). The extracts and compounds with higher SI values were considered the most promising and selected for further investigation if available in sufficient quantities.
A general note: Formazan colour is commonly taken as a measure of viable cells.

A short description of data set [2]: Cytotoxicity (CC50) by MTT method in BHK-21 cells. Format: cell-based. The following applies: hamster, compounds. The protocol:
as §1, §2

For one compound, CC50 results are on record in paper PMC8861615, “Searching for plant-derived antivirals against dengue virus and Zika virus” (Virology Journal, 2022).

The structures appear in SMILES notation.

For the compound `O=C1N[C@@H]2C(=C[C@H](O)[C@@H](O)[C@H]2O)c2cc3c(c(O)c21)OCO3` [Narciclasine], the figures for the CC50 in data set [1] and in data set [2] were 0.12 µM and 0.09 µM, respectively.

For orientation: CC50 means the concentration giving 50% cytotoxicity. A high value points to better tolerance by the cells.
